Tested on: JIMT-1 cells (breast carcinoma)
Experiment: JIMT-1 mouse xenograft study
Type: in vivo
Details: single dose 30 mg/kg i.v. bolus, Day 14 post treatment, NMRI nude mice

## Kadcyla®: commercially-available ADC produced using an SMCC linker with a DM1 maytansinoid payload
  mean tumour volume at Day 14: 165 mm^3
